Details: in ethanol, 298.15 K

CS(=O)(=O)c1ccc([C@@H](O)[C@@H](CO)NC(=O)C(Cl)Cl)cc1
solubility (mole fraction): 0.000438

From BigSolDB 2.1
